Laboratory results taken from patent US6485970B1, “Immunointeractive antibody” (priority 1997, dated 2002).

Legend:
BA-TABM = assay: Competitive inhibition ELISA, BA-TABM against plate bound BA-HSA; assay type: binding, human; details: competitor pre-incubated with BA-TABM
Method: (§1) FIG. 13 is a graphical representation of competitive inhibition ELISA between BA-TABM and various haptens. Purified BA-TABM was diluted and pre-mixed with various haptens. The mixture was put onto an ELISA plate coated with the hapten BA-HSA and incubated. The amount of TABM binding as determined using the mouse monoclonal anti-human TABM antibody (MG3C9-1A12). [drawing 12]
as §1, with “FIG. 14” for “FIG. 13”, “representation showing” for “representation of competitive”, “various chemicals.” for “various haptens.”, “binding was” for “binding as”, “[drawing 13]” for “[drawing 12]”
To determined the antigen specific reactivity of BA-TABM toward BA-HSA and other haptens, a competitive ELISA was used. The ELISA plate was coated with BA-HSA (250 ng/well) in carbonate buffer overnight at 4° C. The plate was washed and blocked with 1% w/v HSA in PBS for 90 minutes at 37° C. Serum from the patient with high levels of TABM to BA-HSA was used at a dilution of 1/400, in PBS. The competing antigens or haptens were serially diluted (½) in the diluted serum to give a range equivalent to 5000-312.5 ng per well. […]

serum TABM = assay: Competitive inhibition ELISA, patient serum TABM against plate bound BA-HSA (R28 detection); assay type: binding, human; details: patient serum 1/200 pre-incubated with competitor, 5000-312.5 per well

inhibition of BA-TABM binding to plate bound BA-HSA (BA-TABM)	inhibition of serum TABM binding to BA-HSA on the well (serum TABM)	Substance
inhibited; also recorded: inhibition	inhibit	BA-HSA: para-amino benzoic acid conjugated to human serum albumin
Weaker inhibition	No inhibition	Form-HSA: Formaldehyde conjugated human serum albumin
–	No inhibition	HSA: Human serum albumin

Entries after “also recorded” stand apart in the source; their conditions may differ.
